Assay results as given in patent publication US5789386A, “Fluorine-containing anthracycline derivatives having hydroxyl groups(s) mono- or di-o-aminoalkanoylated in the sugar moiety thereof” (priority 1995, dated 1998).
≈ marks a conversion by molar mass, not a printed value.

Tested on: adriamycin-resistant P388 cells (P388/ADR)
Experiment: In vitro growth inhibition of adriamycin-resistant P388 cells (P388/ADR), 72 hours
Format: cell-based, mouse
Details: test compounds as trifluoroacetate

`COc1cccc2c1C(=O)c1c(O)c3c(c(O)c1C2=O)C[C@@](O)(C(=O)CO)C[C@@H]3O[C@H]1C[C@H](OC(=O)CN)[C@H](OC(=O)CN)[C@H](C(F)(F)F)O1` [Compound 25, 7-O-(2,6-dideoxy-6,6,6-trifluoro-3,4-di-O-glycyl-α-L-lyxo-hexopryranosyl)adriamycinone] showed an IC50 of 0.29 µg/mL (≈ 0.407 µM).
